By UniProt entry, the sequences of proteins in these tests, tags left out. Where a name states a change or a piece, a line headed by the entry shows the natural chain unless it says otherwise.
UniProt P32754: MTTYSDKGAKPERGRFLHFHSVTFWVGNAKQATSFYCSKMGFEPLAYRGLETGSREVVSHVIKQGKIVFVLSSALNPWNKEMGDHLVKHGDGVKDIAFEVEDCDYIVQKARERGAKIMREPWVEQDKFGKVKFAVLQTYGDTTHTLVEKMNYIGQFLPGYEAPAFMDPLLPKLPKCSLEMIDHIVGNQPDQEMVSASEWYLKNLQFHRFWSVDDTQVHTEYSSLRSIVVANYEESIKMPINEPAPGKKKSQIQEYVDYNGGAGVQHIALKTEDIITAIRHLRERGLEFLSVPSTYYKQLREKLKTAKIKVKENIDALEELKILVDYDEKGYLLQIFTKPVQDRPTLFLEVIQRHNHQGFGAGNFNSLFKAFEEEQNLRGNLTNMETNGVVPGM

In ChEMBL document CHEMBL3407412, “Synthesis and bioevaluation of pyrazole-benzimidazolone hybrids as novel human 4-Hydroxyphenylpyruvate dioxygenase inhibitors” (Eur J Med Chem, 2015):

Target: 4-hydroxyphenylpyruvate dioxygenase (Homo sapiens, UniProt P32754)
Assay: Inhibition of human recombinant His-tagged HPPD expressed in Escherichia coli BL21(DE3) by UV/visible plate reader analysis

Molecule `CCCn1c(=O)n(C(C)C)c2cc(C(=O)c3c(C)nn(C)c3O)ccc21` has an IC50 of 1190 nM.

`CCCn1c(=O)n(CCC)c2cc(C(=O)c3cnn(C)c3O)ccc21` gave an IC50 of 40 nM.

`Cc1nn(C)c(O)c1C(=O)c1ccc2c(c1)n(C(C)C)c(=O)n2C` gave an IC50 of 940 nM.

In the case of `Cn1ncc(C(=O)c2ccc3c(c2)n(Cc2ccccc2)c(=O)n3C)c1O`, the IC50 is reported as 130 nM.

`CCCCn1c(=O)n(C)c2ccc(C(=O)c3c(C)nn(C)c3O)cc21` was tested, and the IC50 was 640 nM.

For `Cc1nn(C)c(O)c1C(=O)c1ccc2c(c1)n(C1CCCC1)c(=O)n2C`, the IC50 was 930 nM.

Molecule `CCn1c(=O)n(CC)c2cc(C(=O)c3cnn(C)c3O)ccc21` has an IC50 of 21 nM.

`CCCn1c(=O)n(CC)c2ccc(C(=O)c3cnn(C)c3O)cc21` showed an IC50 of 22 nM.

For `Cn1ncc(C(=O)c2ccc3c(c2)n(C2CC2)c(=O)n3C)c1O`, the IC50 was 100 nM.

Molecule `CCn1c(=O)n(C(C)C)c2cc(C(=O)c3c(C)nn(C)c3O)ccc21` has an IC50 of 970 nM.

`CCCn1c(=O)n(CC)c2cc(C(=O)c3c(C)nn(C)c3O)ccc21` showed an IC50 of 740 nM.

With `CC(C)Cn1c(=O)n(C)c2ccc(C(=O)c3cnn(C)c3O)cc21` the IC50 was 140 nM.

Work on `CCn1c(=O)n(CC)c2cc(C(=O)c3c(C)nn(C)c3O)ccc21` yielded an IC50 of 940 nM.

`CCCn1c(=O)n(CC)c2ccc(C(=O)c3c(C)nn(C)c3O)cc21` gave an IC50 of 880 nM.

`CCCn1c(=O)n(C(C)(C)C)c2cc(C(=O)c3cnn(C)c3O)ccc21` was tested, and the IC50 was 77 nM.

In the case of `CCCn1c(=O)n(CCC)c2cc(C(=O)c3c(C)nn(C)c3O)ccc21`, the IC50 is reported as 720 nM.

With `CC(C)n1c(=O)n(C)c2ccc(C(=O)c3cnn(C)c3O)cc21` the IC50 was 61 nM.

`Cc1nn(C)c(O)c1C(=O)c1ccc2c(c1)n(C(C)(C)C)c(=O)n2C` showed an IC50 of 990 nM.

Work on `Cn1ncc(C(=O)c2ccc3c(c2)n(C2CCCC2)c(=O)n3C)c1O` yielded an IC50 of 130 nM.

Molecule `CCCn1c(=O)n(C)c2ccc(C(=O)c3cnn(C)c3O)cc21` has an IC50 of 59 nM.

Work on `CCn1c(=O)n(C)c2ccc(C(=O)c3c(C)nn(C)c3O)cc21` yielded an IC50 of 970 nM.

Work on `Cc1ccc(-n2c(=O)n(C)c3ccc(C(=O)c4c(C)nn(C)c4O)cc32)cc1` yielded an IC50 of 990 nM.

`CCn1c(=O)n(C)c2ccc(C(=O)c3cnn(C)c3O)cc21` was tested, and the IC50 was 22 nM.

`CCn1c(=O)n(C2CC2)c2cc(C(=O)c3cnn(C)c3O)ccc21` gave an IC50 of 220 nM.

`CCCn1c(=O)n(C)c2ccc(C(=O)c3c(C)nn(C)c3O)cc21` was tested, and the IC50 was 1030 nM.

Work on `CCn1c(=O)n(C(C)(C)C)c2cc(C(=O)c3cnn(C)c3O)ccc21` yielded an IC50 of 150 nM.

For `CCn1c(=O)n(C(C)C)c2cc(C(=O)c3cnn(C)c3O)ccc21`, the IC50 was 64 nM.
